Reference: ChEMBL document CHEMBL1138225, “Synthesis and structure-activity relationships of 3,8-diazabicyclo[4.2.0]octane ligands, potent nicotinic acetylcholine receptor agonists” (J Med Chem, 2006)

Sequences of proteins named here, by UniProt entry; tags and fusion partners are left off. Residues count along the entry.
UniProt P09483, 31-630 limits assumed: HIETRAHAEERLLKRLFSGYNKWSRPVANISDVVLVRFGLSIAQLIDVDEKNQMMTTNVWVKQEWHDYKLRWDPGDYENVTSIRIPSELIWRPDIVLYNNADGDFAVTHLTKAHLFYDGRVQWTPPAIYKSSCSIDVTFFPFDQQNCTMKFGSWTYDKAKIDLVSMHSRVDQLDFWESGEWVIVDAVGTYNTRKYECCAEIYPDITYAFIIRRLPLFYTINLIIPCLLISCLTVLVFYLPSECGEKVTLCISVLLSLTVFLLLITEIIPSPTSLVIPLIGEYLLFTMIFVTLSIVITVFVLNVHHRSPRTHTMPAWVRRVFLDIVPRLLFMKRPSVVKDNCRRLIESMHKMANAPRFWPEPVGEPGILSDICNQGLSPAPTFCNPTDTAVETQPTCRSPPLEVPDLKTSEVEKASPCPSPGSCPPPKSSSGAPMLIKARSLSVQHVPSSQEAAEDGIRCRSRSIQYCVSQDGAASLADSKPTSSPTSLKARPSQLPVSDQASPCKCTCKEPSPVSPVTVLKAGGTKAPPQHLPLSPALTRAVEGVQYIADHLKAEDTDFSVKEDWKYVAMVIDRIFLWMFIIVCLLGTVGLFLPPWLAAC
UniProt P12390, 25-500 limits assumed: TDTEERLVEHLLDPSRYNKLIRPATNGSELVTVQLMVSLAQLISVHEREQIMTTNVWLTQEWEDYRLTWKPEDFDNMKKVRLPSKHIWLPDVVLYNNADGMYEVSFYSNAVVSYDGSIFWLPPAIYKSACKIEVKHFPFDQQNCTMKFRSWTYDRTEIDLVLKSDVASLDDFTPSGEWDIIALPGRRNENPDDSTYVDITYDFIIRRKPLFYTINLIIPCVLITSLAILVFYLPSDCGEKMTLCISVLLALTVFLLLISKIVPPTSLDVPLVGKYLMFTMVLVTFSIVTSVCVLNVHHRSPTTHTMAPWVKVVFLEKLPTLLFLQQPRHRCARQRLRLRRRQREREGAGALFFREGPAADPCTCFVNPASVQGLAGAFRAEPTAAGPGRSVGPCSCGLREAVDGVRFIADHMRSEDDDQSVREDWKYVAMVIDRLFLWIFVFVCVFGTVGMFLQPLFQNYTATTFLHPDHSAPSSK
UniProt P17787, 26-502 limits assumed: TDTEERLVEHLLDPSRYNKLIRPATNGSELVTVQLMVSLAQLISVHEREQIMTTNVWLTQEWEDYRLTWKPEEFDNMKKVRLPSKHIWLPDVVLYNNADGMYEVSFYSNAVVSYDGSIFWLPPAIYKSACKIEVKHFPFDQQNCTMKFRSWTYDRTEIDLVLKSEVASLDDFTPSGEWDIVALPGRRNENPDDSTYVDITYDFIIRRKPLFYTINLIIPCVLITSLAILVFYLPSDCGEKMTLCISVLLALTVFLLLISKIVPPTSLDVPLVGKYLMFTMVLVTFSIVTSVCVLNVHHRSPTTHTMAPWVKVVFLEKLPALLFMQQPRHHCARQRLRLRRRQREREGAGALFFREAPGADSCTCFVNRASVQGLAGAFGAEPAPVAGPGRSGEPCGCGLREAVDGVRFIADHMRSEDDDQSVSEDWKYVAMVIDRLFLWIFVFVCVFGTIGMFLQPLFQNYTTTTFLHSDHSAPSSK
UniProt P43681, 27-627 limits assumed: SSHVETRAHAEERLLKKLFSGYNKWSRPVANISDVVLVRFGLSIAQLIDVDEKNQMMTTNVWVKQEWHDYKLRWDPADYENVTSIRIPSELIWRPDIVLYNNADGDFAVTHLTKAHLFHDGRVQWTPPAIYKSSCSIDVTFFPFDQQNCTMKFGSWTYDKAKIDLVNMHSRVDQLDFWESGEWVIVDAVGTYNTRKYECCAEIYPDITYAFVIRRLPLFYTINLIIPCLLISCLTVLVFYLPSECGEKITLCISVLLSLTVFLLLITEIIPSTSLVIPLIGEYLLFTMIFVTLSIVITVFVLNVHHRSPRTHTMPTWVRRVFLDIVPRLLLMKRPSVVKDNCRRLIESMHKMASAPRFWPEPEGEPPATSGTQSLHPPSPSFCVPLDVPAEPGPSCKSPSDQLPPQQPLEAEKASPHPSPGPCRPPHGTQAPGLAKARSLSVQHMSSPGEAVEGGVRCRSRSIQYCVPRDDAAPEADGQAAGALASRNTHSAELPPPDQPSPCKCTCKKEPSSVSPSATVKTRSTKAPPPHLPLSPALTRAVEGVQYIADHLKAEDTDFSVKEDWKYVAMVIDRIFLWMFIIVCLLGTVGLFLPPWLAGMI
UniProt P30926, 22-498 limits assumed: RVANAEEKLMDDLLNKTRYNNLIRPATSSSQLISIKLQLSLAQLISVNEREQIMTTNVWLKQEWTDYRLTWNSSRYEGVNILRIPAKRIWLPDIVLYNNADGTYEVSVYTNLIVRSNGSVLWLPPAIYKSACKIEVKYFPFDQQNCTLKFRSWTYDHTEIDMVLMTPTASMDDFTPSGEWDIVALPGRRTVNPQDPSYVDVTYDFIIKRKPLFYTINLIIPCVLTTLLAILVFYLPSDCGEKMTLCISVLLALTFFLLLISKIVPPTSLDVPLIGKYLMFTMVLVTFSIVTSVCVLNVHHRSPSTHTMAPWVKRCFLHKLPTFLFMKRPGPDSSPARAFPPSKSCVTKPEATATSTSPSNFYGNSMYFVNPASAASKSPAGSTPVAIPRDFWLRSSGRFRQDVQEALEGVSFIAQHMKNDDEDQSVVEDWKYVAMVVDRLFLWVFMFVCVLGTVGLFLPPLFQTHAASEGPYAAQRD
UniProt P32297, 32-505 limits assumed: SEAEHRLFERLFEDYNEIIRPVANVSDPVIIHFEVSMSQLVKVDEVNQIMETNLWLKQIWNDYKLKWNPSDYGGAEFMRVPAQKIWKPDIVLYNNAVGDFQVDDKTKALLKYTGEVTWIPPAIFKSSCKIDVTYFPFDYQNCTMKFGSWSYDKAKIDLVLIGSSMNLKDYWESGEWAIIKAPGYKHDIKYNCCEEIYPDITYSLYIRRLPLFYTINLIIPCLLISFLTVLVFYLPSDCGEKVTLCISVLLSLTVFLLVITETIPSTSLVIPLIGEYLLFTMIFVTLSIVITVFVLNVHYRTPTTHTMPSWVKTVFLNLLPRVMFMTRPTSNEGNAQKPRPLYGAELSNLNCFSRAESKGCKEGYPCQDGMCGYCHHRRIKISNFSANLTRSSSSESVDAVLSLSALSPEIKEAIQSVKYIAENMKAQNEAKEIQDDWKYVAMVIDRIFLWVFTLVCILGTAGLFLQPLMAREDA

Key:
[1] = target: Neuronal acetylcholine receptor; alpha4/beta2 (Rattus norvegicus, UniProt P09483+P12390); experiment: Displacement of [3H]cytisine from alpha-4-beta-2 ACHR in rat brain homogenate; type: tissue-based
[2] = target: Neuronal acetylcholine receptor; alpha4/beta2 (Homo sapiens, UniProt P17787+P43681); experiment: Agonist activity at human alpha4beta2 ACHR expressed in HEK293 cells assessed as change in intracellular calcium concentration by FLIPR
[3] = target: Neuronal acetylcholine receptor; alpha3/beta4 (Homo sapiens, UniProt P30926+P32297); experiment: Agonist activity at human alpha-3-beta-4 ACHR expressed in HEK293 cells assessed as change in intracellular calcium concentration by FLIPR

N/C(=N/O)c1cncc(N2CC[C@@H]3CN[C@@H]3C2)c1
Ki [1]: 0.062 nM | EC50 [2]: 180 nM | EC50 [3]: 5.7 µM
